{
  "source": "patent US6464961B2",
  "about": "“Polymeric delivery and release systems for oral care actives” (ISP Investments Inc., priority 2000, dated 2002)",
  "test": "Aqueous hydrolysis of polymer-bound menthyl ester (slurry in DI water, FTIR and odor)",
  "format": "physicochemical",
  "method": "The product of Example 1 (2 g of finely ground powder) was slurried with Dl water (18 g) in a sealed jar. […] It was agitated with a magnetic stirrer with gentle heat (36 to 37° C.) for 4 hours. The freeze-dried sample was evaluated by FTIR (as a KBR pellet).",
  "key": {"[1]": {"conditions": "slurry in DI water, 36 to 37° C., kept overnight"}},
  "data": [
    {"substance": "Menthyl Ester of Maleic Anhydride-Methyl Vinyl Ether Copolymer (Gantrez® AN) [Example 1]", "values": [
      {"measurement": "anhydride absorbance (FTIR)", "setting": "2 g powder slurried in 18 g DI water, 36 to 37° C., agitated 4 hours, freeze-dried sample, KBr pellet", "result": "disappeared"},
      {"measurement": "ester band at 1736 cm-1 (FTIR)", "setting": "slurry in DI water, 36 to 37° C., 4 hours", "result": "persisted"},
      {"measurement": "ester band (FTIR)", "setting": "[1]", "result": "significantly reduced"},
      {"measurement": "menthol odor of slurry", "setting": "[1]", "result": "strong menthol odor"},
      {"measurement": "menthol odor of slurry", "setting": "slurry in DI water, at start, before heating", "result": "very faint menthol odor"}
    ]}
  ]
}
